Results reported in patent US10729672B2, “Antineoplastic combinations with mTOR inhibitor, trastuzumab and/or HKI-272” (Wyeth LLC, priority 2005, dated 2020).

How the values were obtained:
Type in all cases: cell-based
[1] = test system: MCF-7 [HER-2−, EGFR−; adenocarcinoma; ATCC HTB22] cells; experiment: SRB cell survival / growth inhibition, MCF-7 cells; details: MCF-7, no HER-2
Procedure: (§1) The combination was tested in three breast cancer cell lines of differing genotypes.
(§2) Cells from each of these cell lines were incubated in the presence of a range of concentrations ([…]) for each drug. […] Compound dilutions were prepared in the same medium, at 2× final concentration, and 100 μl of the drug dilution was added to the cell-containing wells.
(§3) Serial dilutions of one compound were prepared in the presence of a fixed dose of a second compound. Alternatively, a checkerboard dilution series was employed. Cells were cultured for three days in the presence of the drugs. Untreated cells were included as controls. The percentage of surviving cells was determined using sulforhodamine B (SRB, Sigma-Aldrich, St Louis, Mo.), a protein binding dye. Cellular protein was precipitated in each well by the addition of 50 μl 50% cold trichloroacetic acid. After 1 hour, the plates were washed extensively in water and dried. SRB dye reagent (0.4% SRB in 1% acetic acid, 80 μl per well) was added and plates were kept at room temperature for ten minutes. […] Cell-associated dye was dissolved in 10 mM Tris (150 μl) and the absorbance was read at 540 nm in a microtiter plate reader. The concentration of compound that caused a fixed percentage inhibition of growth was determined by plotting cell survival (relative to untreated cells) against the compound dose.

[2] = test system: BT474 [HER-2+ (amplified); ATCC HTB-20] cells; experiment: SRB cell survival / growth inhibition, BT474 cells
Procedure: as §1, §2, §3

[3] = test system: MDA-MB-361 [HER-2+ (non-amplified); adenocarcinoma; ATCC HTB 27] cells; experiment: SRB cell survival / growth inhibition, MDA-MB-361 cells; details: MDA-MB-361, lower levels of HER-2 without amplification
Procedure: as §1, §2, §3

trastuzumab: FDA-approved therapeutic monoclonal antibody for HER2 protein overexpressing metastatic breast cancer
sensitivity of the cell line to the single agent [1]: resistant | sensitivity of the cell line to the single agent [2]: highly sensitive | sensitivity of the cell line to the single agent [3]: less sensitive
